Source: US9132097B2, “Nanoparticles stabilized with nitrophenylboronic acid compositions” (California Institute of Technology, priority 2013, dated 2015)

Tests used:
BT-474 xenograft tumors = conditions: Herceptin 2.9 mg/kg i.v. once per week for 2 weeks
Experimental: Treatments began on day 1. […] All treatments were freshly prepared and given via intravenous tail vein injection. Injections were standardized at 150 μl per 20 g body weight of mice. […] Tumor sizes were recorded three times a week using caliper measurements (length×width2/2) and health of the animals was continuously monitored. Animals were euthanized when tumor volumes exceeded 1000 mm^3. Six weeks after beginning of the treatment, animals were euthanized by CO2 asphyxiation.

MDA-MB-231 = test: Cytotoxicity assay (CellTiter 96 AQueous One) in MDA-MB-231; type: cell-based; conditions: concentrations of up to 0.5 μM
MCF-7 = test: Cytotoxicity assay (CellTiter 96 AQueous One) in MCF-7; type: cell-based; conditions: concentrations of up to 0.5 μM
[1] = Zeta potential measurement; type: physicochemical; conditions: without PEG or with the labelled PEG compound (Herceptin conjugate at 0.25 mol %)

Row | Substance | Tumor result compared to control group (BT-474 xenograft tumors) | NNTRD (number of non-treatment related death) (BT-474 xenograft tumors; Nbegin 6) | NTRD (number of treatment related death) (BT-474 xenograft tumors; Nbegin 6) | Nend (number of animals surviving to end of study) (BT-474 xenograft tumors; Nbegin 6) | Neuthan (number of animals euthanized due to exceeding tumor size limit of 1000 mm^3) (BT-474 xenograft tumors; Nbegin 6) | Effects on HER2− cell line (MDA-MB-231) | Effects on HER2− cell line (MCF-7) | Zeta potential of MAP-4/siRNA particle [1]
1 | Herceptin: human IgG1 antibody (Herceptin®) | significant compared to control group | 0/0/0 | 0/0/0 | 6/6 | 0/0/0 | no effects | no effects | 
2 | IgG (Herceptin®) conjugated nitroPBA-PEG: Herceptin conjugated by EDC coupling to on average 1 to 2 nitroPBA-PEG-CO2H |  |  |  |  |  |  |  | remained similar
